The text below walks through data of US20150224202A1, “FORMULATIONS AND USES FOR MICROPARTICLE DELIVERY OF ZINC PROTOPORPHYRINS” (priority 2014, published 2015).

The data set deals with 3-day-old mouse pups. In words: Effect of light exposure on metalloporphyrin-treated newborn mice (chemical toxicity and phototoxicity). The note with it: 3.75 μmol ZnBG/kg BW, 3-day-old pups exposed to light. The method, then: FIG. 2 includes three panels ((A), (B), and (C)), showing the experimental setup for phototoxicity studies. 3-day-old pups (magnified in panel (A)) were given vehicle or Mp IP at doses ranging from 3.75 to 30 μmol/kg body weight (BW) and then exposed for 3 hours to fluorescent light consisting of 2 cool white and 1 blue tubes (as shown in panel (B)) emitting an irradiance of 35.0±1.0 μW/cm^2/nm as measured by a BiliBlanket II Meter (as depicted in panel (C)).
Effect of light exposure on metalloporphyrin-treated newborn mice. […] Pups were either kept in the dark (controls) or exposed to fluorescent light composed of two cool white tubes (F20T12cW) and one blue (TL20W/52) tube for 3 hours (FIG. 2).

In turn, zinc bis glycol porphyrin [ZnBG] had a survival of 100%.
